This passage reports inhibition results from PubChem BioAssay AID2058 (Sanford-Burnham Center for Chemical Genomics, 2009).

Amino acid sequences for entries named in this document (tags omitted).
UniProt Q9HC97, whole entry: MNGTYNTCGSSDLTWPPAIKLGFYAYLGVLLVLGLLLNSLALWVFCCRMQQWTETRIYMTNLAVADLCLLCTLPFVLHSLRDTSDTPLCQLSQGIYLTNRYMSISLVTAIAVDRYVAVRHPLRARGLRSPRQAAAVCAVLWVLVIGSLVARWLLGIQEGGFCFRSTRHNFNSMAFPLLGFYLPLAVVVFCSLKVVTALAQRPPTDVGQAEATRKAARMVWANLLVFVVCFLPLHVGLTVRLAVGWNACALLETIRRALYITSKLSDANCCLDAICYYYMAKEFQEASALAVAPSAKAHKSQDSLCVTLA

SMILES strings stand for the structures. The entries are a selection whose mix differs from that of the whole data set. Entries with a potency or affinity are not part of this list. Some salts and complexes are drawn in separate pieces, as the source files them; their charges need not balance. Activity calls are given as the source filed them.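 How the source made its calls: active means inhibition of at least 50% with at least 30 cells and total cytoplasm GFP at most 10,000,000; inconclusive means under 30 cells or total GFP of 10,000,000 plus; inactive means the rest.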

The inhibition is the drop in the measured response relative to a control, in per cent.

This experiment has as its target G-protein coupled receptor 35 (Homo sapiens) (UniProt Q9HC97). The experiment can be described thus: inhibition of zaprinast-stimulated GPR35 beta-arrestin translocation – imaging, U2OS, beta-arrestin-GFP, zaprinast agonist, primary screen (AID 2058). The settings on record: zaprinast antagonism, at 10 µM, hits give high values.
As for `O=C(OC1CN2CCC1CC2)c1ccc([N+](=O)[O-])cc1` (stereo not given), the inhibition is inactive: 7.6%. The same measure for `O=C(OCCN1CCN(CCOCc2ccccc2)CC1)C(O)(c1ccccc1)c1ccccc1`: inactive: 4%; for `COc1ccc2c(c1O)-c1c(O)c(OC)cc3c1[C@H](C2)[N+](C)(C)CC3.O=[N+]([O-])c1cc([N+](=O)[O-])c([O-])c([N+](=O)[O-])c1[O-]`: inactive: -6.7%.

Consider `CP(=O)(Nc1ccccc1F)Oc1ccccc1` (stereo not given), for which the inhibition was inactive: -13.2%. With `CC(C)c1ccc(OP(C)(=O)Nc2ccc(SC(F)(F)F)cc2)cc1` (stereo not given) the figure was inactive: 3.3%; with `CCN(CC)CCCOC(=O)C(O)(c1ccccc1)C1CCCCC1` (stereo not given), inactive: -4.7%; with `CP(=O)(Nc1ccccc1)Oc1ccc(F)cc1` (stereo not given), inactive: -11.1%. For `CCCCCOc1ccc(NP(C)(=O)Oc2ccc(Cl)cc2Cl)cc1` (stereo not given), the inhibition is inactive: 6.3%. As for `O=[N+]([O-])c1cc([N+](=O)[O-])c(OC2CCCCC2O)c([N+](=O)[O-])c1` (stereo not given), the inhibition was inactive: -16.1%. With `CCOC(=O)c1ccc(NP(C)(=O)Oc2ccc(F)cc2)cc1` (stereo not given), the inhibition was inactive: 8.6%. Regarding `COc1ccc(OP(C)(=O)Nc2ccc(SC(F)(F)F)cc2)cc1` (stereo not given), the inhibition was inactive: -14.6%.

Turning to `O=[N+]([O-])c1ccc(OP2(=O)COCCO2)cc1` (stereo not given), the inhibition is inactive: 0.9%. On to `Cc1cc(-c2cccc3ccccc23)c(C)cn1.O=[N+]([O-])c1cc([N+](=O)[O-])c(O)c([N+](=O)[O-])c1`, for which the inhibition is inactive: -9.4%. The same measure for `O=[N+]([O-])c1cc([N+](=O)[O-])c(NCC2CCS(=O)(=O)C2)c([N+](=O)[O-])c1` (stereo not given): inactive: 9.6%. `COc1ccc(OP(C)(=O)Nc2cccc(Br)c2)cc1` (stereo not given): the inhibition was inactive: 4.8%. For the compound `CN(C)CCOC(=O)C(O)(c1ccccc1)C1CCCCC1` (stereo not given), the inhibition was inactive: 19.8%. With `COc1ccc(NP(C)(=O)Oc2ccccc2OC)cc1` (stereo not given) the figure was inactive: -9.9%; with `CP(=O)(Nc1ccc2c(c1)OCCO2)Oc1ccccc1` (stereo not given), inactive: -12.9%; with `Cc1ccccc1NP(C)(=O)Nc1ccccc1C`, inactive: -2%.

In the case of `CP(=O)(Nc1ccc(SC(F)(F)F)cc1)Oc1ccc(F)cc1` (stereo not given), the inhibition was inactive: -15.6%. `CCOP(C)(=S)SCC(=O)NC(C)(CC)C(=O)O` (stereo not given): the inhibition is inactive: -10.2%. With `CC(C)(C)c1ccc(OP(C)(=O)O)cc1` the figure was inactive: -1.3%; with `COc1ccccc1OP(C)(=O)Nc1ccccc1Br` (stereo not given), inactive: -10.3%.

For `CP(=O)(Nc1ccc(Cl)cc1)Oc1ccc(F)cc1` (stereo not given), the inhibition is inactive: -4.3%. The same measure for `CN(C)C(=O)c1c([N+](=O)[O-])cc([N+](=O)[O-])cc1[N+](=O)[O-]`: inactive: -13.3%; for `CCN(CC)CC(O)COC(=O)C(O)(c1ccccc1)C1CCCCC1` (stereo not given): inactive: 19.6%. With `COc1ccc(OP(C)(=O)Nc2ccc(Br)cc2)cc1` (stereo not given) the figure was inactive: -12.3%; with `COc1ccccc1OP(C)(=O)Nc1c(C)n(C)n(-c2ccccc2)c1=O` (stereo not given), inactive: -1%. With `O=C(OCCCN1CCCC1)C(O)(c1ccccc1)C1CCCCC1` (stereo not given) the figure was inactive: 4.4%; with `CP(=O)(Oc1ccccc1)N1CCOC1=O` (stereo not given), inactive: 8.8%; with `CCc1ccc(OP(C)(=O)Nc2cccnc2)cc1` (stereo not given), inactive: -1.5%. As to `CCOC(=O)c1ccc(NP(C)(=O)Oc2ccc(Cl)cc2)cc1` (stereo not given), the inhibition is inactive: -20.3%. With `CP(=O)(OC12CC3CC(CC(C3)C1)C2)OC12CC3CC(CC(C3)C1)C2`, the inhibition was inactive: 2.4%. `Cc1nc2ccc3ccccc3c2o1.O=[N+]([O-])c1cc([N+](=O)[O-])c(O)c([N+](=O)[O-])c1`: the inhibition was inactive: 6.3%. Regarding `CP(=O)(OCCOc1ccccc1)OCCOc1ccccc1`, the inhibition is inactive: -4.2%. For the compound `CP(=O)(Nc1ccc(Cl)cc1Cl)Oc1ccccc1` (stereo not given), the inhibition was inactive: 8.7%. The same measure for `Cc1cc(C)cc(OP(C)(=O)Nc2cccc(C(F)(F)F)c2)c1` (stereo not given): inactive: 10.2%; for `COc1ccccc1OP(C)(=O)Nc1ccc(C)c(C)c1` (stereo not given): inactive: 3.9%. The same measure for `COc1ccc(OP(C)(=O)Nc2ccccc2Br)cc1` (stereo not given): inactive: -1.5%; for `O=[N+]([O-])c1cc([N+](=O)[O-])c(Nc2ccccn2)c([N+](=O)[O-])c1`: inactive: 14.5%.

As to `Cc1c(NP(C)(=O)Oc2ccc(C(C)C)cc2)c(=O)n(-c2ccccc2)n1C` (stereo not given), the inhibition was inactive: -8.3%. The same measure for `CP(=O)(Nc1ccccn1)Oc1ccccc1` (stereo not given): inactive: 13.9%; for `COc1ccccc1OP(C)(=O)Nc1ccc(C)cc1C` (stereo not given): inactive: 17%; for `CCc1ccc(OP(C)(=O)O)cc1`: inactive: 1.4%. With `COc1ccccc1OP(C)(=O)Nc1ccc(Br)cc1` (stereo not given), the inhibition is inactive: 9.3%. The same measure for `COc1ccc(OP(C)(=O)Nc2ccccn2)cc1` (stereo not given): inactive: 0.9%; for `CN(C)CCOC(=O)C(O)(c1ccccc1)C1CCCC1` (stereo not given): inactive: -5.8%; for `CCN(CC)CCCOC(=O)C(O)(c1ccccc1)c1ccccc1`: inactive: -6.2%. The same measure for `COc1ccccc1OP(C)(=O)Nc1ccc(C)cc1` (stereo not given): inactive: 9.1%; for `Cc1ccc(NP(C)(=O)Oc2ccccc2)c(C)c1` (stereo not given): inactive: -1.6%; for `CCOC(=O)c1ccc(NP(C)(=O)Oc2ccccc2)cc1` (stereo not given): inactive: 6.2%. With `Cc1cc(C)cc(OP(C)(N)=O)c1` (stereo not given) the figure was inactive: 7.9%; with `COc1ccccc1OP(C)(=O)Nc1cc(Cl)ccc1C` (stereo not given), inactive: 13.3%. Consider `COc1ccc(OP(C)(=O)Nc2cccc(F)c2)cc1` (stereo not given), for which the inhibition was inactive: -23.6%.

As to `O=[N+]([O-])c1ccc2c(c1)C=Nc1ccccc1O2`, the inhibition was inactive: 6.7%. The same measure for `CC(C)(C)c1ccc(OP(C)(=O)Nc2ccc(SC(F)(F)F)cc2)cc1` (stereo not given): inactive: 3.8%; for `Cc1cccc(C)c1OP(C)(N)=O` (stereo not given): inactive: -11%; for `CP(=S)(Nn1cnnc1)Oc1ccccc1` (stereo not given): inactive: 3.1%. With `CP(=O)(Nc1ccccc1Br)Oc1ccccc1` (stereo not given) the figure was inactive: 17%. In the case of `COc1ccccc1OP(C)(=O)Nc1ccccc1` (stereo not given), the inhibition was inactive: -10.3%. `CCOC(=O)c1ccc(NP(C)(=O)Oc2ccc(OC)cc2)cc1` (stereo not given): the inhibition is inactive: -12.1%.

Turning to `CCOP(C)(=S)SCC(=O)NC(C)C(=O)O` (stereo not given), the inhibition was inactive: -18.9%. `CP(=O)(Nc1ccccn1)Oc1ccc(Cl)cc1` (stereo not given): the inhibition is inactive: 6%. With `Cc1cccc(C)c1OP(C)(=O)Nc1ccc(SC(F)(F)F)cc1` (stereo not given) the figure was inactive: 3.8%. As for `CP(=O)(Nc1ccc(SC(F)(F)F)cc1)Oc1ccc(Cl)cc1` (stereo not given), the inhibition was inactive: 3.5%. Consider `CP(=O)(Oc1ccccc1)OC(c1ccccc1)C(F)(F)F` (stereo not given), for which the inhibition was inactive: -6.7%. With `CCc1ccc(OP(C)(=O)N2CCN(c3ccc([N+](=O)[O-])cc3)CC2)cc1` (stereo not given) the figure was inactive: -10.8%. With `CP(=O)(NC(=O)Nc1ccccc1)Oc1ccccc1` (stereo not given) the figure was inactive: 6.9%; with `Cc1cc(C)cc(OP(C)(=O)Nc2ccc(SC(F)(F)F)cc2)c1` (stereo not given), inactive: -3.6%; with `Cc1nc2ccc3ccccc3c2s1.O=[N+]([O-])c1cc([N+](=O)[O-])c(O)c([N+](=O)[O-])c1`, inactive: 5.8%.

Regarding `O=[N+]([O-])c1cc([N+](=O)[O-])c(-n2nnc3ccccc32)c([N+](=O)[O-])c1`, the inhibition is inactive: -11.2%.

As for `COc1ccccc1OP(C)(=O)Nc1c(C)cccc1C` (stereo not given), the inhibition is inactive: 1.5%. Consider `CN1CCCCC1COC(=O)C1(O)c2ccccc2CCc2ccccc21` (stereo not given), for which the inhibition is inactive: 5.7%. In the case of `CP(=O)(Nc1ccc(SC(F)(F)F)cc1)Oc1ccccc1` (stereo not given), the inhibition was inactive: 10.1%. The same measure for `CCCOc1ccc(NP(C)(=O)Oc2ccc(Cl)cc2)cc1` (stereo not given): inactive: -2.3%. The same measure for `O=[N+]([O-])c1cc([N+](=O)[O-])c(Nc2nnnn2CCO)c([N+](=O)[O-])c1`: inactive: -6.4%; for `CCOC(=O)C(CC)C1=NC(C)(C)Cc2ccccc21.O=[N+]([O-])c1cc([N+](=O)[O-])c(O)c([N+](=O)[O-])c1` (stereo not given): inactive: 14.9%. On to `CC1=NCCc2c1[nH]c1ccccc21.O=[N+]([O-])c1cc([N+](=O)[O-])c(O)c([N+](=O)[O-])c1`, for which the inhibition is inactive: -13.5%.

Regarding `O=C(O)c1cccc(Nc2c([N+](=O)[O-])cc([N+](=O)[O-])cc2[N+](=O)[O-])c1`, the inhibition is inactive: -12.6%.

Regarding `Cc1ccc(C)c(NP(C)(=O)Oc2ccccc2)c1` (stereo not given), the inhibition is inactive: 2.5%. Regarding `CP(=O)(Nc1cccc(Br)c1)Oc1ccccc1` (stereo not given), the inhibition is inactive: -7.6%.

Turning to `Cc1cc(C)cc(OP(C)(=O)Nc2ccccn2)c1` (stereo not given), the inhibition was inactive: 6.1%. With `COc1ccccc1OP(C)(=O)Nc1cccc(Br)c1` (stereo not given) the figure was inactive: 2.5%. Turning to `CCOC(=O)c1ccc(NP(C)(=O)Oc2cc(C)cc(C)c2)cc1` (stereo not given), the inhibition is inactive: -7.4%.

With `Cc1cc(C)cc(OP(C)(=O)Nc2ccc(C)cc2C)c1` (stereo not given), the inhibition is inactive: -2.4%.
